Results on one compound are retold here after patent publication US9663503B2, “5-[[4-[[morpholin-2-yl]methylamino]-5-(trifluoromethyl)-2-pyridyl]amino]pyrazine-2-carbonitrile and therapeutic uses thereof” (priority 2012, dated 2017).

One test has as its system SW620 cells. The experiment in a line: Cellular efficacy in combination with gemcitabine (SRB potentiation). Conditions: SRB IC50/Potentiation IC50, 96 hour, gemcitabine at its IC50. It is filed as cell-based.
The test system of the next test is HT29 cells. The test can be described thus: Cellular potency in Mitosis Inhibition Assay (MIA), checkpoint abrogation after etoposide. It is filed as cell-based. Conditions: etoposide pre-treatment, with nocodazole, read-out: CHK1 Cellular Potency MIA IC50.

Molecules are shown by their SMILES.

Broadly, the IC50 is the concentration at which inhibition is half-maximal. For the compound `Cn1cc(-c2cnc(Nc3cnc(C#N)cn3)cc2NC[C@@H]2CNCCO2)cn1` [Compound Y-152], the “Cell Efficacy + Gemcitabine in SW620 cells (Potentiation Index)” value in the test with SW620 cells was determined as 8 fold. Besides, the IC50 in the test with HT29 cells was 400 nM.
